Target: human vitamin D receptor (VDR) (Homo sapiens, UniProt P11473)
Test: Human vitamin D receptor (VDR) agonist activity, GAL4-VDR LBD luciferase transactivation assay in HEK293 cells
Settings: read-out: Effective concentrations of half maximal activation (EC50); transiently transfected HEK293 cells, VDR LBD-GAL4 DBD hybrid receptor, pFR-Luc luciferase reporter, 16 h incubation

Amino acid sequences for entries named in this document (tags omitted). Residues count along the entry.
UniProt P11473, 127-423 limits assumed: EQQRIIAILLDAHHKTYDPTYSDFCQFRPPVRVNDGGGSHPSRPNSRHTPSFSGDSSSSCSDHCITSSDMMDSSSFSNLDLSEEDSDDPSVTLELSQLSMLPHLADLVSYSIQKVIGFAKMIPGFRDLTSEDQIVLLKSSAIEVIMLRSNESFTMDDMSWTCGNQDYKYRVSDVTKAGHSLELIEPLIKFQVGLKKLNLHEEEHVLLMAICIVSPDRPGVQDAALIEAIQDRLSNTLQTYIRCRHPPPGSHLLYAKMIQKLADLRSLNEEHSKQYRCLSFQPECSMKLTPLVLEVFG

CC/C(=C\C=C\C(O)(C(F)(F)F)C(F)(F)F)c1cccc(CCc2ccc(CO)c(CO)c2)c1
EC50: 17 nM

— US10570075B2, “Compounds” (DSM IP ASSETS B.V., priority 2015, dated 2020)
